Measurements from patent US20240139326A1, “METHACRYLAMIDES PROTEIN BINDERS AND USES THEREOF” (YEDA RESEARCH AND DEVELOPMENT CO. LTD., priority 2020, published 2024).

Chains of the proteins cited; added tags and fusions are not shown. Residues count along the entry.
UniProt Q06187, 2-659 limits assumed: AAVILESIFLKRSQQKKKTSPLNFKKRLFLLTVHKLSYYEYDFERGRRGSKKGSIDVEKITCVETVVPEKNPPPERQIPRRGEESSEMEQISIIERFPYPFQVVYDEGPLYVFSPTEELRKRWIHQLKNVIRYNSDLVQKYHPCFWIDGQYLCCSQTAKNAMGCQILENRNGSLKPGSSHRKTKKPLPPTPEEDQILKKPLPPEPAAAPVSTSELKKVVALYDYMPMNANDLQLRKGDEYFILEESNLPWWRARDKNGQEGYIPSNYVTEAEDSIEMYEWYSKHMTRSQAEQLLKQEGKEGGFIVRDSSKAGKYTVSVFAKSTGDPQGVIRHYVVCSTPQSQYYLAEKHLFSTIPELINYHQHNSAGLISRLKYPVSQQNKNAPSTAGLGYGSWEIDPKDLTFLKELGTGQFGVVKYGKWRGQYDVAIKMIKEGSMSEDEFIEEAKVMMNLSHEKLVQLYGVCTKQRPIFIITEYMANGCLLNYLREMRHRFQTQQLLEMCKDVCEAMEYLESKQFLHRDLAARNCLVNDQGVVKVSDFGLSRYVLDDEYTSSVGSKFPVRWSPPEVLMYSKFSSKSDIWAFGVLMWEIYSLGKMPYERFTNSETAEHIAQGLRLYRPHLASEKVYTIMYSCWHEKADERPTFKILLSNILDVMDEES

Assays:
primary mouse B cells = assay: B-cell response experiment (anti-IgM activation, CD86 expression); conditions: 24 h, 37° C.
Mino cells = assay: Pull-down proteomics in Mino cells; format: cell-based; conditions: 100 nM probe
Protocol: To validate the molecular target of the probes, a competition experiment was performed, where the cells were pre-incubated with Ibrutinib prior to labelling with the probes (FIG. 25C). […] It is interesting to note that some off-targets were not competed by Ibrutinib, indicating these are new off-targets specific to our probes (FIG. 25C). To identify the off-targets of these probes, we performed a pull-down proteomics experiment in Mino cells (FIG. 25D) using 7d. […] Biotin was conjugated to the alkyne via CuAAC, and avidin beads were used for enrichment. BLK, MCAT and ADK were found as off-targets for probe 7d (FIG. 25D). ADK (40.5 kDa) and MCAT (Also known as SLC25A20; 33 kDa) correspond to the two bands seen in the gel (FIG. 25C) that are not competed by Ibrutinib. Both were abundant proteins in the cell which may explain probe binding. Overall very few off-targets were detected for all probes at the lower concentration.

BTK = BTK (Homo sapiens (Human), UniProt Q06187); assay: In-gel fluorescence labeling of BTK in Mino cells / lysate

BTK labeling in Mino cells (BTK; 10 nM probe, 2 h): robust labeling
BTK labeling in Mino cells (BTK; 100 nM probe): bind to BTK in cells
SMILES: C#CCCNC(=O)C(=C)CN1CCC[C@@H](n2nc(-c3ccc(Oc4ccccc4)cc3)c3c(N)ncnc32)C1
inhibition of B cell activation (CD86 expression) (primary mouse B cells): did not inhibit the activation of B cells
off-targets found by pull-down proteomics (Mino cells): BLK, MCAT and ADK
